Hits are enriched below; roughly 1.3% of the tested compounds scored in any of these assays.
KCNH2 WT inh: blocks the wildtype human KCNH2 potassium channel. U2OS, BacMam KCNH2, thallium flux FluxOr; hits give low values. AID 720551. 340,000 tested, 0.37% active. Q12809. activity change, % at 1.84 µM;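 active = maximum activity change below -70%; inconclusive = maximum activity change between -70% and -50%; inactive = maximum activity change above -50%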; also: % is scaled to controls: 0 for no effect and ±100 for the full control effect
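U2OS cells were transduced with wild-type KCNH2 virus (2.03 x 10^8 / mL) for 4 h at room temperature, then cultured overnight at 37 C. Thallium flux was read with FluxOr dye. Rate constants were normalized to DMSO controls.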
KCNH2 3.1 block: inhibitors of human KCNH2 3.1 potassium channel isoform | activity change, % (tested at about 1.8 µM) | U2OS KCNH2 3.1, thallium flux FluxOr; hits give low values | 340,000 tested, 0.95% active;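 active = maximum activity change below -70%; inconclusive = maximum activity change from -70% to -50%; inactive = maximum activity change above -50%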;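 also: thallium influx rate constant from kinetic fluorescence after stimulation buffer; % is scaled to controls: 0 for no effect and ±100 for the full control effect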
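Steps: virus added to U2OS suspension (4 h, RT, dark); medium with 10% FBS added, cells plated, 37 C overnight; FluxOr/Red40 loading buffer 45 min RT; stimulation buffer, 2 min kinetic read; rate constant normalized.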
Rango-impB inh: inhibitors of Rango-importin beta complex formation; Q14974; Rango CFP/YFP FRET sensor + importin beta, 45 min; Potency, µM (doses to about 92.2 µM), without a hit: top-dose inhibition of complex formation; 340,000 tested, 0.031% active;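 also: potency is read from the fitted curve at half-maximal effect; 0% = DMSO wells and 100% = buffer wells lacking importin beta; nearly all actives have a fitted effect of over 15% in size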
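FRET biosensor Rango (snurportin 1 IBB between N-terminal EYFP and C-terminal Cerulean), 50 nM in PBS/1 mM DTT/0.02% Tween-20/0.1% BSA, preincubated 5 min RT with compound; 0.125 microM importin beta added, 45 min RT, CFP/YFP FRET ratio read.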
Rango release inh: inhibitors of RanGTP-induced Rango-importin beta complex dissociation; Biochemical FRET Rango-importin beta, RanGTP-induced dissociation; 340,000 tested, 0.071% active; Potency, µM (highest dose often 46.1 µM), for the others: top-dose activity change, negative = inhibition; O95149+P62826; AID 540253; also: potency is read from the fitted curve at half-maximal effect; % of control where 0% means no effect; nearly all actives have a fitted effect of over 45% in size
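Compounds sat 5 min at room temperature with 0.1 uM Rango biosensor plus 0.25 uM importin beta, then FRET pre-read. RanGTP-RCC1 (0.6 uM Ran, 2mM GTP, 0.2 uM RCC1) added for 45 min, and the CFP/YFP post-read measured blocked complex dissociation.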
Starred values were filed as active, the others as inactive; ? = inconclusive; . = not tested or not shown. Unless noted, calls follow the shape of the full dose curve.

Below each compound – KCNH2 3.1 block, Rango-impB inh, Rango release inh, KCNH2 WT inh
> Cc1ccccc1NC(=O)C1CCCN1S(=O)(=O)c1ccccc1C(F)(F)F (centres undefined)
→ 0, 0%, -13%, -12
> Fc1ccc(-c2nnc(-c3ccc4ccccc4c3)o2)cc1
→ -6, -5%, -6%, 15
> CCNc1c(NC(=O)c2ccc3c(c2)OCO3)c(=O)oc2ccccc12
→ 12, -6%, -11%, -16
> CN(CC(=O)Nc1ccc(Cl)cc1F)C1CCS(=O)(=O)C1 (centres undefined)
→ 9, ?, -2%, -2
> O=C1NC(=O)/C(=C\c2cn(CC(=O)N3CCOCC3)c3ccccc23)S1
→ 1, 0%, 11%, -2
> COc1ccccc1CNC(=O)CN(C)S(=O)(=O)c1cccc2cccnc12
→ -125*, 0%, -5%, -1
> Cc1cccc(N2CC(C(=O)Nc3nnc(SCC(=O)N4CCOCC4)s3)CC2=O)c1 (centres undefined)
→ -2, -1%, 8%, 6
> O=C(CSc1nc2ccccc2[nH]1)NCCc1ccc(Cl)cc1
→ -30, -1%, 7%, -121*
> Cc1ccc(CNC(=O)CSc2nc3ccccc3[nH]2)cc1
→ 3, 0%, -18%, -8
> CC(Sc1nnc(-c2ccccc2F)n1C)C(=O)Nc1ccc(N2CCOCC2)cc1 (centres undefined)
→ -5, ., ., 11
> CC(Sc1nnc(C(F)(F)F)n1C)C(=O)Nc1ccc(N2CCOCC2)cc1 (centres undefined)
→ -186*, 0%, -9%, -140*
> Cc1cc(F)ccc1S(=O)(=O)Nc1c(C)n(C)n(-c2ccccc2)c1=O
→ -74*, ?, 17%, -8
> Cc1noc(C)c1S(=O)(=O)Nc1c(C)n(C)n(-c2ccccc2)c1=O
→ -26, 0%, 12%, -79*
> Cc1c(NS(=O)(=O)c2ccccc2F)c(=O)n(-c2ccccc2)n1C
→ -2, 5%, 14%, -9
> Cc1c(NC(=O)c2ccc(F)cc2)c(=O)n(-c2ccccc2)n1C
→ 3, 4%, 0%, 29
> COc1ccc(/C(O)=C/C(=O)C(=O)Nc2c(C)n(C)n(-c3ccccc3)c2=O)cc1
→ 31, -2%, 0%, -119*
> Cc1c(NC(=O)c2cccc(F)c2)c(=O)n(-c2ccccc2)n1C
→ -109*, -3%, -17%, -3
> Cc1ccccc1CN(C)C(C)C(=O)NCc1ccccc1 (centres undefined)
→ -20, 2%, 3%, 6
> NC(=S)NN=C1Cc2cccc3cccc1c23
→ 4, -1%, -1%, -14
> Nc1ccn([C@@H]2O[C@H](CNCc3cccc4c3sc3ccccc34)[C@@H](O)[C@H]2O)c(=O)n1
→ 3, ., ., 0
> Cc1ccc(S(=O)(=O)N2CCN(C)CC2)c(C)c1N(C)S(=O)(=O)c1ccc(Cl)cc1
→ -94*, -4%, -12%, -4
> Cc1cc(C)c(S(=O)(=O)N2CCCCC2)cc1N(C)S(=O)(=O)c1ccc(Cl)cc1
→ 3, -1%, 21%, 2
> COc1ccc(-n2nc3c(c2NC(=O)c2c(F)cccc2Cl)CS(=O)C3)cc1 (centres undefined)
→ -78*, -3%, -12%, -4
> COc1ccc(-c2nc(Cn3c(SCc4ccc(C)cc4)nc4ccncc43)c(C)o2)cc1OC
→ -122*, 5%, 1%, -46
> Cc1ccc(CSc2nc3ccncc3n2CC(=O)Nc2cc(C)cc(C)c2)cc1
→ -46, 0%, -3%, -4
> COc1ccc(-c2nc(Cn3c(SCc4cccc(F)c4)nc4ccncc43)c(C)o2)cc1OC
→ -107*, 0%, -12%, -1
> O=C1C=C(c2ccccc2)C(c2ccccc2)C1O (centres undefined)
→ 6, 0%, 2%, -4
> Cc1cc(C(=O)CCC(=O)N2CCN(c3ccccc3)CC2)c(C)s1
→ -9, -2%, 19%, -18
> Cc1cc(CNCCN(C)C)c(C)n1-c1cc(S(=O)(=O)N2CCOCC2)ccc1N1CCCC1
→ 9, 3%, -26%, 2
> CCC(C)[C@H](NC(=O)N1CCn2c1nc1ccccc12)C(=O)NCCc1ccc(OC)c(OC)c1 (some centres undefined)
→ -4, 4%, -12%, 6

Laid out differently: results already given.
compound,KCNH2 3.1 block,Rango-impB inh,Rango release inh,KCNH2 WT inh
Cc1c(NC(=O)c2cccc(F)c2)c(=O)n(-c2ccccc2)n1C,-109*,-3%,-17%,-3
Cc1ccccc1CN(C)C(C)C(=O)NCc1ccccc1 (centres undefined),-20,2%,3%,6

Other structures:
Below each compound – KCNH2 3.1 block, Rango-impB inh, Rango release inh, KCNH2 WT inh
> COc1ccc(Nc2nc(N)nc(CN(C)C3CCCCC3)n2)cc1
→ -18, -1%, 11%, 3
> CCOc1ccc(Nc2nc(N)nc(CN(C)C3CCCCC3)n2)cc1
→ ?, 58µM*, 1%, 80
> CCN(CC)C(=O)[C@H]1CC(CC(=O)NCC23CC4CC(CC(C4)C2)C3)C(=O)N2CCc3c([nH]c4ccccc34)[C@]12C (some centres undefined)
→ ., 0%, 10%, -8
> O=C(NC1CCCCCC1)c1cccs1
→ -3, 0%, 13%, -83*
> O=C(NC1CCCCC1NC(=O)c1cccs1)c1cccs1 (centres undefined)
→ 8, 0%, 6%, -3
> NS(=O)(=O)c1cccc(NC(=O)CCCNC(=O)c2ccc(Cl)cc2)c1
→ 20, 16µM*, 8%, 0
> COc1cc(CN2CCC(n3nccc3NC(=O)c3ccccc3OC)CC2)ccc1F
→ -70*, -3%, -9%, -106*
> COc1ccccc1C(=O)Nc1ccnn1C1CCN(Cc2ccccc2OCCO)CC1
→ -82*, 0%, 7%, -39
> COc1ccccc1CN1CCC(n2nccc2NC(=O)c2ccccc2Cl)CC1
→ -49, 0%, 10%, 0
> CCOc1ccc(CN2CCC(n3nccc3NC(=O)c3ccccc3OC)CC2)cc1
→ -12, 6%, 0%, -154*
> CCn1cc(CN2CCC(n3nccc3NC(=O)c3ccccc3OC)CC2)cn1
→ -41, 0%, -24%, -2
> Cc1ccc(C(=O)NCC(=O)OCC(=O)N(CC(C)C)c2c(N)n(Cc3ccccc3)c(=O)[nH]c2=O)s1
→ 17, ., ., 4
> COc1ccc2[nH]c(=O)cc(C(=O)O)c2c1
→ -3, 0%, -7%, 5
> COc1ccc2[nH]c3c4c(ccc3c2c1)C(=O)C=CC4=O
→ ?, ?, 4.6µM*, -2
> Cc1ccn2c(NCc3ccc4c(c3)OCO4)c(-c3ccc(O)cc3)nc2c1
→ -75*, 0%, 12%, -12

Three records picked at random from the list so far, as already listed:
Below each compound – KCNH2 3.1 block, Rango-impB inh, Rango release inh, KCNH2 WT inh
> COc1cc(CN2CCC(n3nccc3NC(=O)c3ccccc3OC)CC2)ccc1F
→ -70*, -3%, -9%, -106*
> COc1ccccc1CN1CCC(n2nccc2NC(=O)c2ccccc2Cl)CC1
→ -49, 0%, 10%, 0
> NS(=O)(=O)c1cccc(NC(=O)CCCNC(=O)c2ccc(Cl)cc2)c1
→ 20, 16µM*, 8%, 0

(more compounds)
Below each compound – KCNH2 3.1 block, Rango-impB inh, Rango release inh, KCNH2 WT inh
> O=C(NCCCN1CCOCC1)c1ccccc1N1C(=O)[C@@H]2Cc3c([nH]c4ccccc34)C(c3cccc(Cl)c3)N2C1=O (some centres undefined)
→ -77*, 0%, -7%, ?
> Cc1ccc(C2c3[nH]c4ccccc4c3C[C@H]3C(=O)N(c4ccccc4C(=O)NCCCN4CCOCC4)C(=O)N23)cc1 (some centres undefined)
→ -24, ?, -15%, -4
> CC(NC(=O)c1ccco1)C(=O)O (centres undefined)
→ -116*, -5%, 8%, -5
> CC(NC(=O)c1ccco1)C(=O)OCC(=O)c1ccc(Cl)s1 (centres undefined)
→ -4, -1%, -3%, -224*
> Cc1ccc(C(=O)COC(=O)[C@@H](NC(=O)c2ccco2)C(C)C)s1
→ 3, 2%, -4%, 5

High-throughput results from PubChem BioAssay.
